In patent publication US10251849B2, “Sublingual compositions including epinephrine nanoparticles” (NOVA SOUTHEASTERN UNIVERSITY, priority 2012, dated 2019):

Details: 0.7 mg/ml, 2 passes at 30 KPsi
Experimental: Samples were prepared in triplicates for each concentration, n=3. All prepared samples were processed using LV-1 High Shear Fluid Processor “Microfluidizer” (Microfluidics, Newton, Mass.) equipped with G10Z reaction chamber under various pressures ranging from 15 to 30 KPsi for single or several passes. The microfluidizer-receiving coil was immersed in ice to reduce the heat produced during the process for heat-sensitive drugs. The particle size and potential of the produced nanosuspension were measured. The nanosuspension was centrifuged at 15,000 rpm and 15° C. for 30 minutes to collect the nanoparticles, and the solvent was then removed. The collected nanoparticles were completely dried by speed vacuum concentrator or lyophilization.
Nanoparticle Characterization: The particle size distribution and zeta potential of the nanosuspension was measured before and after size reduction by volume and by intensity using Mastersizer (Malvern) and Zetasizer Nano-ZS90 (Malvern), respectively. The average of 3 measurements for each sample was reported.

For `CNC[C@H](O)c1ccc(O)c(O)c1` [epinephrine bitartrate, (−)-3,4-dihydroxy-α-[(methylamino)methyl]benzyl alcohol (+)-tartrate (1:1) salt], the “Mean ± SD particles size (Z-Average)” value was 879 ± 376 nm.

Where a name gives a salt, the structure may show the parent alone.
